CycPeptMPDB entries from one study

Data: CycPeptMPDB; original report Furukawa et al. 2016, doi:10.1021/acs.jmedchem.6b01246.

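Conditions beyond the assay type are not listed; see the original paper. Other peptides of the study may be missing here. Peptides that the database sets to -10, its floor, are left out.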

PAMPA is the parallel artificial membrane permeability assay, which has no cells and reads passive diffusion.
P is given in units of 10^-6 cm/s (from log10 values with two decimals); larger means faster passage.

compound	PAMPA (10^-6 cm/s)
CCCC[C@@H]1NC(=O)[C@H](CC(C)C)N(C)C(=O)CN(CC2CCOCC2)C(=O)[C@@H](C)NC(=O)CN(CCCOC(C)C)C(=O)[C@H]2CCCN2C1=O	0.047
CCCC[C@@H]1NC(=O)[C@H](CC(C)C)N(C)C(=O)CN(CC2CCCCC2)C(=O)[C@@H](C)NC(=O)CN(Cc2ccc3c(c2)OCO3)C(=O)[C@@H]2CCCN2C1=O	8.1
CCCCCN1CC(=O)N(C)[C@@H](CC(C)C)C(=O)N[C@@H](CCCC)C(=O)N2CCC[C@@H]2C(=O)N(Cc2ccc3c(c2)OCO3)CC(=O)N[C@@H](C)C1=O	12
CCCC[C@@H]1NC(=O)[C@H](CC(C)C)NC(=O)CN(CC2CCOCC2)C(=O)[C@H](C)NC(=O)CN(Cc2ccc3c(c2)OCO3)C(=O)[C@H]2CCCN2C1=O	0.46
CCCC[C@@H]1NC(=O)[C@@H](CC(C)C)NC(=O)CN(CC2CCCCC2)C(=O)[C@@H](Cc2ccccc2)NC(=O)CN(Cc2ccc3c(c2)OCO3)C(=O)[C@@H]2CCCN2C1=O	4.7
CCCC[C@@H]1NC(=O)[C@@H](CC(C)C)NC(=O)CN(CC2CCOCC2)C(=O)[C@@H](Cc2ccccc2)NC(=O)CN(Cc2ccc3c(c2)OCO3)C(=O)[C@@H]2CCCN2C1=O	1
CCCC[C@@H]1NC(=O)[C@@H](CC(C)C)NC(=O)CN(CC2CCOCC2)C(=O)[C@H](Cc2ccccc2)NC(=O)CN(CCCOC(C)C)C(=O)[C@H]2CCCN2C1=O	4.6
CCCC[C@@H]1NC(=O)[C@@H](CC(C)C)NC(=O)CN(CC2CCOCC2)C(=O)[C@H](C)NC(=O)CN(Cc2ccc3c(c2)OCO3)C(=O)[C@H]2CCCN2C1=O	0.89
CCCC[C@@H]1NC(=O)[C@H](CC(C)C)N(C)C(=O)CN(CC2CCCCC2)C(=O)[C@H](C)NC(=O)CN(CCCOC(C)C)C(=O)[C@@H]2CCCN2C1=O	15
CCCC[C@@H]1NC(=O)[C@@H](CC(C)C)N(C)C(=O)CN(CC2CCOCC2)C(=O)[C@H](Cc2ccccc2)NC(=O)CN(CCCOC(C)C)C(=O)[C@@H]2CCCN2C1=O	8.3
CCCCCN1CC(=O)N(C)[C@H](CC(C)C)C(=O)N[C@@H](CCCC)C(=O)N2CCC[C@@H]2C(=O)N(CCCOC(C)C)CC(=O)N[C@H](C)C1=O	4.2
CCCC[C@@H]1NC(=O)[C@H](CC(C)C)N(C)C(=O)CN(CC2CCCCC2)C(=O)[C@H](C)NC(=O)CN(Cc2ccc3c(c2)OCO3)C(=O)[C@H]2CCCN2C1=O	5.6
CCCCCN1CC(=O)N(C)[C@H](CC(C)C)C(=O)N[C@@H](CCCC)C(=O)N2CCC[C@@H]2C(=O)N(CC)CC(=O)N[C@@H](C)C1=O	7.4
CCCCCN1CC(=O)N(C)[C@@H](CC(C)C)C(=O)N[C@@H](CCCC)C(=O)N2CCC[C@@H]2C(=O)N(CC)CC(=O)N[C@@H](Cc2ccccc2)C1=O	7.9
CCCC[C@@H]1NC(=O)[C@H](CC(C)C)N(C)C(=O)CN(CC2CCCCC2)C(=O)[C@H](Cc2ccccc2)NC(=O)CN(CCCOC(C)C)C(=O)[C@H]2CCCN2C1=O	1.4
CCCC[C@@H]1NC(=O)[C@H](CC(C)C)N(C)C(=O)CN(CC2CCCCC2)C(=O)[C@H](Cc2ccccc2)NC(=O)CN(Cc2ccc3c(c2)OCO3)C(=O)[C@@H]2CCCN2C1=O	0.22
CCCCCN1CC(=O)N(C)[C@H](CC(C)C)C(=O)N[C@@H](CCCC)C(=O)N2CCC[C@@H]2C(=O)N(Cc2ccc3c(c2)OCO3)CC(=O)N[C@@H](C)C1=O	10
CCCCCN1CC(=O)N(C)[C@@H](CC(C)C)C(=O)N[C@@H](CCCC)C(=O)N2CCC[C@H]2C(=O)N(CC)CC(=O)N[C@H](Cc2ccccc2)C1=O	6
CCCC[C@@H]1NC(=O)[C@@H](CC(C)C)NC(=O)CN(CC2CCCCC2)C(=O)[C@@H](Cc2ccccc2)NC(=O)CN(CCCOC(C)C)C(=O)[C@H]2CCCN2C1=O	6.9
CCCC[C@@H]1NC(=O)[C@H](CC(C)C)NC(=O)CN(CC2CCOCC2)C(=O)[C@@H](Cc2ccccc2)NC(=O)CN(CC)C(=O)[C@H]2CCCN2C1=O	0.1
CCCCCN1CC(=O)N(C)[C@H](CC(C)C)C(=O)N[C@@H](CCCC)C(=O)N2CCC[C@H]2C(=O)N(CC)CC(=O)N[C@H](C)C1=O	0.55

The 2 lowest values of PAMPA among the entries above:

compound	PAMPA (10^-6 cm/s)
CCCC[C@@H]1NC(=O)[C@H](CC(C)C)N(C)C(=O)CN(CC2CCOCC2)C(=O)[C@@H](C)NC(=O)CN(CCCOC(C)C)C(=O)[C@H]2CCCN2C1=O	0.047
CCCC[C@@H]1NC(=O)[C@H](CC(C)C)NC(=O)CN(CC2CCOCC2)C(=O)[C@@H](Cc2ccccc2)NC(=O)CN(CC)C(=O)[C@H]2CCCN2C1=O	0.1